Data from PubChem BioAssay AID1777 (Sanford-Burnham Center for Chemical Genomics, 2009).
Several values for one entry are separate records, joined by “and”; a condition that tells them apart may be missing. Identical values can stand only once. The list shows a part of the results. Measured potencies and affinities stand elsewhere. Activity calls are given as the source filed them. Rule as the data show it: active = activation above about 50% (passing the limit was not always enough); inactive = the rest.

Sequences of proteins named here, by UniProt entry; tags and fusion partners are left off. A change or cut given only in a name is not applied to a line headed by its entry.
UniProt P41145: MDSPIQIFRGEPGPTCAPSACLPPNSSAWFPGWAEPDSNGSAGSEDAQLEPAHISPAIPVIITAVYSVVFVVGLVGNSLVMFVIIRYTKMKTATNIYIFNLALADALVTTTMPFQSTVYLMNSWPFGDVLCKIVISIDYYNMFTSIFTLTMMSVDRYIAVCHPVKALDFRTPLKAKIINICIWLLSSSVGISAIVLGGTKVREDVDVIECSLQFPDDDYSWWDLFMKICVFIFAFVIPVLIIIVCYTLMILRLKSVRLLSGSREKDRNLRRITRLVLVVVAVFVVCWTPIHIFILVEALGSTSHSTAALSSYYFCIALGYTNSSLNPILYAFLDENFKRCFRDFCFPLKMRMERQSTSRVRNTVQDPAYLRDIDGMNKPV

These compounds were tested against Kappa-type opioid receptor (Homo sapiens) (UniProt P41145) (assay: KOR agonists, beta-arrestin recruitment, primary screen, cell-based, luminescence, uHTS (AID 1777)). Conditions: at 10 µM, stronger effect = higher value.
`O=C(Cn1c(Cc2ccccc2)nc2ccccc21)NCc1ccc2c(c1)OCO2` was tested, and the activation was inactive: 0.2%.
In the case of `Cc1ccc(-c2csc(NCCn3c(-c4ccncc4)nc4ccccc43)n2)cc1`, the activation was inactive: -1.7%.
`Cc1ccc(C)c(S(=O)(=O)N2CCN(C(=O)Cn3c(C(F)(F)F)nc4ccccc43)CC2)c1` was tested, and the activation was inactive: 4.8%.
For `O=C(Cn1cnc2ccccc21)NCc1ccccc1`, the activation was inactive: -1.7%.
For `CC(C)[C@H](NC(=O)N1CCn2c1nc1ccccc12)C(=O)NCc1ccccc1Cl`, the activation was inactive: 1.6%.
For `Cn1c(=O)n(CCN2CCOCC2)c(=O)c2c1nc1n2CCN1c1ccc(Oc2ccccc2)cc1`, the activation was inactive: 4.2%.
With `COc1ccc(N2CCN(C(=O)Cn3cnc4c3c(=O)n(C)c(=O)n4C)CC2)cc1` the activation was inactive: -0.9%.
`O=C(Cn1c(COc2ccccc2)nc2ccccc21)Nc1cc(Cl)cc(Cl)c1` was tested, and the activation was inactive: 21.5%.
In the case of `O=C(O)c1ccccc1[As](=O)(O)O`, the activation was inactive: 2.1%.
`CC(=O)Nc1ccc([As](=O)(O)O)cc1` was tested, and the activation was inactive: -0.1%.
For `Cn1c(=O)c2ncn(CC(=O)Nc3ccc4c5c(cccc35)CC4)c2n(C)c1=O`, the activation was inactive: -4.9%.
In the case of `Cc1ccc2c(c1)C1CN(C)CCC1N2C(=O)c1ccccc1NS(=O)(=O)c1ccc(F)cc1` (stereo unspecified), the activation was inactive: -4.2%.
With `CCOc1cccc(N2C(=O)CC(n3cnc4ccccc43)C2=O)c1` (stereo unspecified) the activation was inactive: -2%.
For `CCCCOC(=O)Cn1c(=N)n(CCN(CC)CC)c2ccccc21`, the activation was inactive: -0.7%.
For `O=C(Cn1c(COc2ccccc2)nc2ccccc21)Nc1cccc(Cl)c1`, the activation was inactive: -1.5%.
For `Cc1cccc(NC(=O)Cn2c(=O)n(C)c3ccccc32)c1`, the activation was inactive: 2.4%.
`COc1ccc(NC2CCN(C3CC(=O)N(c4ccc(F)c(Cl)c4)C3=O)CC2)cc1` (stereo unspecified) was tested, and the activation was inactive: -2.1%.
With `c1ccc(CN2CCC(Nc3nc(-c4cccs4)nc4ccccc34)CC2)cc1` the activation was inactive: 0.5%.
In the case of `Cc1ccc(NP(=O)(Oc2ccccc2F)Oc2ccccc2F)nc1`, the activation was inactive: 1.4%.
For `Cn1c(=O)c2c(ncn2CC(=O)Nc2nc3ccc(F)cc3s2)n(C)c1=O`, the activation was inactive: 0.8%.
For `CCOP(=O)(Nc1ccccc1)OCC`, the activation was inactive: -0.7% and inactive: -2.7%.
In the case of `O=C(Cn1c(/C=C/c2ccccc2)nc2ccccc21)Nc1ccc(F)cc1`, the activation was inactive: -2.3%.
For `CCOc1ccc2nc(NC(=O)Cn3cnc4c3c(=O)n(C)c(=O)n4C)sc2c1`, the activation was inactive: -1.6%.
`CCC(=O)Nc1nc2ccccc2n1CCN1CCOCC1` was tested, and the activation was inactive: -7.7%.
For `Cc1csc2c(NC3CCN(Cc4ccccc4)CC3)ncnc12`, the activation was inactive: -4.4%.
For `Cc1cccc(OCC(O)Cn2c(=N)n(CCN3CCOCC3)c3ccccc32)c1` (stereo unspecified), the activation was inactive: -7.8%.
`O=C(CSc1nc2ccccc2n1CC(=O)N1CCCC1)NCc1ccc2c(c1)OCO2` was tested, and the activation was inactive: -8.9%.
With `Cc1cc(SC(NC(=O)c2ccc(F)cc2)C(Cl)(Cl)Cl)ncn1` (stereo unspecified) the activation was inactive: 0.5%.
`O=[N+]([O-])c1cc(C(F)(F)F)ccc1NC1CCN(Cc2ccccc2)CC1` was tested, and the activation was inactive: 4.9%.
With `CC(C)C[C@H](NC(=O)N1CCn2c1nc1ccccc12)C(=O)NCC1CCCO1` (stereo partly specified) the activation was inactive: 0.3%.
In the case of `O=[N+]([O-])c1ncn(CCn2ncnc2[N+](=O)[O-])n1`, the activation was inactive: -0.4%.
`Cn1c(=O)c2ncn(CC(=O)Nc3nc(-c4ccc(Cl)cc4)cs3)c2n(C)c1=O` was tested, and the activation was inactive: 2.5%.
`CCCn1c(=O)[nH]c(=O)c2c1nc(-c1ccc(OC(F)F)cc1)n2CCN1CCOCC1` was tested, and the activation was inactive: -1%.
`CC(C)(C)NC(=O)Cn1c(SCC(=O)N2CCCCCC2)nc2ccccc21` was tested, and the activation was inactive: 19.7%.
For `CSCC[C@H](NC(=O)N1CCn2c1nc1ccccc12)C(=O)NCc1ccco1`, the activation was inactive: -3.6%.
In the case of `Cc1ccc2c(c1)C1CN(C)CCC1N2C(=O)Nc1cccc(C(F)(F)F)c1` (stereo unspecified), the activation was inactive: 1.6%.
In the case of `Cn1c(=O)c2c(ncn2CC(=O)Nc2ccc(N3CCOCC3)cc2)n(C)c1=O`, the activation was inactive: 7.7%.
With `CSc1nc2ccccc2n1CC(=O)N1CCCCC1` the activation was inactive: -4.4%.
`CC(C)OC(=O)c1ccc(NC(=O)Cn2c(-c3nonc3N)nc3ccccc32)cc1` was tested, and the activation was inactive: -1.8%.
With `C/C(=N\NC(=O)Cn1c(-c2ccccn2)nc2ccccc21)c1ccccc1` the activation was inactive: -7%.
For `O=[N+]([O-])c1ccc2c(c1)nc1n2CCN(CC2CCCO2)C1` (stereo unspecified), the activation was inactive: -3.7%.
In the case of `C/C(=N\NC(=O)Cn1cnc2ccccc21)c1cccs1`, the activation was inactive: -5.6%.
For `CN(C)C(=O)Cn1c(=O)n(S(=O)(=O)c2ccccc2)c2ccccc21`, the activation was inactive: -2.8%.
With `c1ccc(CN2CCC(Nc3ncnc4sccc34)CC2)cc1` the activation was inactive: -5.1%.
With `CCCCc1nc2ccccc2n1CC(=O)NN` the activation was inactive: 9%.
In the case of `CC(C)(C)C(=O)NC(Sc1ccncn1)C(Cl)(Cl)Cl` (stereo unspecified), the activation was inactive: 5.6%.
`CSCC[C@H](NC(=O)N1CCn2c1nc1ccccc12)C(=O)N[C@@H](C(=O)O)c1ccccc1` was tested, and the activation was inactive: -3.6%.
With `Cn1c(=O)c2c(ncn2CC(=O)NC(C)(C)C)n(C)c1=O` the activation was inactive: 6.9%.
In the case of `CCN(Cc1ccccc1)C(=O)Cn1c(C(C)O)nc2ccccc21` (stereo unspecified), the activation was inactive: 3%.
`COC(=O)c1ccc(N2C(=O)CC(N3CCC(n4c(=O)[nH]c5ccccc54)CC3)C2=O)cc1` (stereo unspecified) was tested, and the activation was inactive: 2%.
`COc1cccc(CNC(=O)CCNC(=O)N2CCn3c2nc2ccccc23)c1` was tested, and the activation was inactive: 3.1%.
`COc1cccc(NC(=O)Cn2c(-c3cncs3)nc3ccccc32)c1` was tested, and the activation was inactive: -3.5%.
For `O=C1CCC(=O)N1c1ccc(NC2CCN(Cc3ccccc3)CC2)c([N+](=O)[O-])c1`, the activation was inactive: -4.3%.
In the case of `O=C(c1ccccc1Br)N1CCn2c1nc1ccccc12`, the activation was inactive: 0.6%.
With `O=C(O)CNc1ccc([As](=O)(O)O)cc1` the activation was inactive: 5.8%.
In the case of `Cc1cccc(NC(=O)Cn2c(/C=C/c3ccccc3)nc3ccccc32)c1`, the activation was inactive: -3.9%.
For `Cc1nn(CC(=O)Nc2ccc3c(c2)nc2n3CCN(C3CCCCC3)C2)c(=O)c2ccccc12`, the activation was inactive: 5%.
`O=[N+]([O-])c1ccc(NC2CCN(Cc3ccccc3)CC2)c2ccncc12` was tested, and the activation was inactive: -4%.
In the case of `Cc1noc(C)c1S(=O)(=O)N(CC(=O)N1CCn2c1nc1ccccc12)c1ccc(C(C)C)cc1`, the activation was inactive: -10.1%.
`CCOC(=O)N1CCN(c2c(NC3CCN(Cc4ccccc4)CC3)c(=O)c2=O)CC1` was tested, and the activation was inactive: -2.5%.
With `CC(C)Sc1nc2ccccc2n1CC(N)=O` the activation was inactive: 1.7%.
With `O=C(Cn1cnc2ccccc21)N1CCN(S(=O)(=O)c2ccccc2)CC1` the activation was inactive: 9.1%.
`CN(C)C1(c2nnnn2-c2ccc(Cl)cc2)CCCCC1` was tested, and the activation was inactive: -5.5%.
`O=[N+]([O-])c1cccc(NC2=NCC(CBr)S2)c1` (stereo unspecified) was tested, and the activation was inactive: 2.1%.
`COc1ccc(Cc2nc3ccccc3n2CC(=O)N/N=C/c2ccc(O)cc2)cc1OC` was tested, and the activation was inactive: -2.8%.
`CCN(CC)S(=O)(=O)c1ccc(NC2CCN(Cc3ccccc3)CC2)nc1` was tested, and the activation was inactive: 1.9%.
With `O=S(=O)(Cc1ccccc1)N1CCn2c(nc3ccccc32)C1` the activation was inactive: -8.2%.
`CC1CCCN(Cc2nc3c(c(=O)n(C)c(=O)n3C)n2CC(N)=O)C1` (stereo unspecified) was tested, and the activation was inactive: 1.8%.
In the case of `CN1CCN(c2nc3c(c(=O)n(C)c(=O)n3C)n2CC(N)=O)CC1`, the activation was inactive: -1.8%.
In the case of `CC(C)[C@H](NC(=O)N1CCn2c1nc1ccccc12)C(=O)N[C@H](C(=O)O)c1ccccc1`, the activation was inactive: 3.3%.
In the case of `O=C(Cn1cnc2ccccc21)NCCCN1CCOCC1`, the activation was inactive: 2.3%.
`CC(C)[C@H](NC(=O)N1CCn2c1nc1ccccc12)C(=O)NCc1ccc2c(c1)OCO2` was tested, and the activation was inactive: -3.2%.
In the case of `Cn1c(=O)c2ncn(CC(=O)NC3CCCCCC3)c2n(C)c1=O`, the activation was inactive: 20.5%.
`Cn1c(=O)n(Cc2ccc(Cl)cc2)c(=O)c2c1nc1n2CCN1Cc1ccco1` was tested, and the activation was inactive: -0.4%.
With `O=[N+]([O-])c1ccccc1NC1CCN(Cc2ccccc2)CC1` the activation was inactive: 4.1%.
With `Cc1ccc2c(c1)C1CN(C)CCC1N2C(=O)Nc1ccc(Cl)cc1` (stereo unspecified) the activation was inactive: -8.7%.
With `Cc1ccc2c(c1)C1CN(C)CCC1N2C(=O)c1cccnc1Cl` (stereo unspecified) the activation was inactive: 2.5%.
For `COc1ccc(N2CCn3c2nc2c3c(=O)n(CCc3ccccc3)c(=O)n2C)cc1`, the activation was inactive: -3.2%.
With `N#CCC(=O)N/N=C\c1ccccc1OC/C=C/c1ccccc1` the activation was inactive: 1.8%.
With `Cc1ccc2c(c1)C1CN(C)CCC1N2CC(=O)N(C)c1ccccc1` (stereo unspecified) the activation was inactive: -6.7%.
With `CCOC(=O)Nc1ccc2c(c1)nc1n2CCN(CCOC)C1` the activation was inactive: 2%.
With `COc1ccc(Cc2nnc(NC(=O)Cn3cnc4c3c(=O)n(C)c(=O)n4C)s2)cc1` the activation was inactive: -2.5%.
With `CCN(CC)CCn1c(=N)n(CC(O)c2ccco2)c2ccccc21` (stereo unspecified) the activation was inactive: -1.5%.
`Cn1c(=O)c2c(nc(NCCc3ccccc3)n2CC(=O)NCCc2ccccc2)n(C)c1=O` was tested, and the activation was inactive: -1.2%.
`Cc1cc(NC(=O)CSc2nc3ccccc3n2CC(=O)N2CCCCC2)no1` was tested, and the activation was inactive: -1.6%.
`Cc1ccc(-c2csc(N3CCN(c4cc5c(cc4Cl)nc(C)n5CCN4CCCCC4)CC3)n2)cc1` was tested, and the activation was inactive: 0.4%.
With `O=C(CCCN1CCC2(CC1)C(=O)NCN2c1ccccc1)c1ccc(F)cc1` the activation was inactive: 2.6%.
`COc1cc(NC(=O)Cn2c(-c3cncs3)nc3ccccc32)cc(OC)c1OC` was tested, and the activation was inactive: 2%.
`Cn1c(=O)c2c(nc(CN3CCN(c4ccc(F)cc4)CC3)n2CCN2CCOCC2)n(C)c1=O` was tested, and the activation was inactive: 7.3%.
In the case of `CC1CN(Cc2nc3c(c(=O)[nH]c(=O)n3C)n2CC(N)=O)CC(C)O1` (stereo unspecified), the activation was inactive: 1.5%.
`Cn1c(=O)[nH]c(=O)c2c1nc(NC1CCCCC1)n2CC(=O)NC1CCCCC1` was tested, and the activation was inactive: -0.8%.
